Tests used:
[1] = tested on: Sprague-Dawley adult male rats; test: Traumatic brain injury (lateral fluid percussion): ICP, CPP and pbtO2 monitoring; format: in vivo, rat
Experimental: Sprague-Dawley adult male rats were divided into 4 groups: vehicle, E2-SO4 (1 mg/kg), sham+vehicle and sham+E2-SO4; n=5/group. The TBI model was lateral fluid percussion injury (LFP), induced via a hydraulic pressure pulse to the anesthetized rat's exposed brain. This was introduced through a burr hole in the lateral skull prepared one day prior to LFP. A single iv dose of E2-SO4 or saline vehicle was administered 1 hr after LFP. Physiological parameters were measured 24 hr post-injury.
In a second experiment, the efficacy of E2-SO4 treatment for TBI in a lateral fluid percussion (LFP) model was examined. This involved 6 groups of rats (n=5/group). All rats received a craniectomy. Groups 1, 2, 4 and 5 received LFP injury. Groups 1 and 4 were treated with E2 (1 mg/kg) 1 hr post-injury, groups 2 and 5 were vehicle (Veh)-treated and groups 3 and 6 were sham. […] Relative standard uptake values (SUV) of upper half of brain to central value, fractional anisotropy (FA) and apparent diffusion coefficient (ADC) maps were calculated. […]
The clinical manifestation of edema after TBI can be seen as increased intracranial pressure, with lower brain perfusion pressure and reduced oxygen tension. […] FIG. 44 compares treatments for TBI with hormones, measured over a 120 min period to control the effects of the invasive probe on pressures. […]

[2] = Traumatic brain injury: weight loss or gain; format: in vivo, rat; conditions: FIG. 45; after 7 d; vehicle-treated rats continue to lose weight
Description: The same treatment also improves the injured rat's performance for memory and cognitive functions, which improve further over time. […] Since weight gain is the result of integration of several complex physiological processes (locomotion, wake/sleep cycles and circadian rhythms, olfactory and visual sensing, digestion, etc.) the preservation of weight gain indicates a highly significant benefit from estrogen treatment in TBI.

C[C@]12CC[C@@H]3c4ccc(O)cc4CC[C@H]3[C@@H]1CC[C@@H]2O [17β-estradiol]
intracranial pressure ([1]; FIG. 48, E2 treatment administered 24 hours after TBI): markedly reduces intracranial pressure
ICP (intracranial pressure) ([1]; TBI (LFP), 1 mg/kg iv 1 hr after injury, measured 24 hr post-injury, TBI vehicle 17.4±0.5, sham 4.7): 7±0.4 mmHg
weight gain after TBI [2]: resume weight gain nearly at the level as the uninjured sham controls
